The values that follow are results of earlier work, collected in patent US11531207B2, “Devices, apparatus and method for providing photostimulation and imaging of structures” (The Trustees of Columbia University in the City of New York, priority 2008, dated 2022).

The conditions of this data set: local application ("puffing"); cited from earlier work.

Regarding MNI-caged L-glutamate [MNI-glutamate], the “concentration limited by the solubility of the compound in the water” value is 10 to 50 mM.
